# Measured affinities in a library of Ab-14 light chain variants

From the AlphaSeq antibody data of Li et al. 2023 (doi:10.1038/s41467-023-39022-2), copy in the FLAb collection.

Target peptide (SARS-CoV-2 spike, HR2 region): PDVDLGDISGINAS

The variants keep the heavy chain, the linker and the frameworks of Ab-14 (scFv order VH, three GGGGS repeats, VL).
VH: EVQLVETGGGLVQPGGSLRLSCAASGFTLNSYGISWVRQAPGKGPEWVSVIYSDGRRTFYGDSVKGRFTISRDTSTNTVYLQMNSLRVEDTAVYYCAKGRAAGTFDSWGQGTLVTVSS
VL: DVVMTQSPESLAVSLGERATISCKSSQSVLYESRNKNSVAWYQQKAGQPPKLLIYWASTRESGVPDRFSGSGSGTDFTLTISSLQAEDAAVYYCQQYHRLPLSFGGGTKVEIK

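The parent was found by panning a naive human phage display library on the peptide. These sequences belong to a second round, designed from the earlier measurements on random variants of the parent. Group labels follow the data file (En: ensemble of fine-tuned language models; GP: Gaussian process model; HC: hill climbing; Gen: genetic algorithm; Gibbs: Gibbs sampling; a sequence that several methods proposed may carry one label only). The scFvs were displayed on barcoded MATa yeast, the peptide on MATalpha yeast. Pairs that bind mate more often; barcode pairs of the diploids are counted by sequencing. The ratio of observed to expected reads was calibrated, replicate by replicate, on BCL2-family standards whose Kd was known from biolayer interferometry. Each pool was mated in six replicate cultures.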

Each variant is given by its three light chain CDRs, as the data file delimits them; those of the parent are KSSQSVLYESRNKNSVA, WASTRES, QQYHRLPLS. This list holds designs with more than six substitutions. Each Kd is an estimate from the mating assay, the geometric mean of the replicates in which the pair was seen; lower is stronger. "no signal" marks a missing value. The strain was present, yet no cells mated with the target were sequenced in any replicate, which points to weak or no binding. Three control strains display no target. For all light chain designs, 4% of the pairings with them gave a signal, with a median of 430 nM and one signal in twenty below 38 nM, so weak values seen in few replicates may be background. Of ten entries with the parent sequence, four were seen in most replicates (averages 2.2 nM to 240 nM), three in one and three in none, so single entries are noisy. The authors averaged sequences with at least three values out of six and counted those with two or fewer as poor binders. Values of this round are not directly comparable with the first-round values of the same sequences.

| CDR-L1 | CDR-L2 | CDR-L3 | group | Kd (apparent) | seen in |
|---|---|---|---|---|---|
| KAPQSMWYESRNKNSVA | SASTRSQ | QQYHRLPLS | GP_Gibbs | 1.9 nM | 6/6 |
| SMSNLGMVPSVWKNSIA | DAEIVEE | QQYSRLPLL | En_Gibbs | 1.2 nM | 6/6 |
| KFNISKEGVTSEGKSIA | GAQTIDE | QQYDRLPLA | En_Gibbs | 17 nM | 6/6 |
| HISMMVGTKGYAKNSVA | NAETRED | QQYHRLPLS | En_HC | 1.3 nM | 6/6 |
| QLYAVQDMTSKNKNNVA | EQSTREN | QQYHRLPLS | En_HC | 5.6 nM | 6/6 |
| KLSQSWLYLSRNHNAVA | QASQRLS | QDYHRLPLS | GP_Gibbs | 1.4 nM | 6/6 |
| TLAQGIYEPVRKSNNVA | EASHVTD | QQYERLPLE | En_Gibbs | 9.8 nM | 6/6 |
| KITQMVTGQSHNKNSIA | QMTTREG | QQYHRLPLS | En_HC | 29 nM | 5/6 |
| HISPSFMVESRLKNSVA | QTETRVS | QQYDRLPLS | En_HC | 1.7 nM | 6/6 |
| TISQSANMESHNKNSVA | DLNLRGS | QQYDRLPLS | En_HC | 2.0 nM | 6/6 |
| ALSQMMDMTSRNKNSVA | DLTTREN | QQYHRLPLS | En_HC | 1.2 nM | 6/6 |
| MISQLYNMGSFAINSVA | QASERNI | QQYDRLPLI | En_Gen | 35 nM | 6/6 |
| TISNVMNTLTRHGNNVA | DLAERED | QQYFRLPLS | En_Gen | 910 pM | 6/6 |
| TLMMGPTEARDSKHAIA | DNNERDR | QQYHRLPLY | En_Gibbs | 5.3 nM | 6/6 |
| QLGMMLHELSKVTNSVA | EMTTRGN | QQYFRLPLS | En_Gen | 1.9 nM | 6/6 |
| VLGQNHDEREMYCDNIA | DATHREA | QQYYRLPFV | En_Gibbs | 52 nM | 6/6 |
| IVSQLMLWGMHAKNSIA | EAQTRYN | QQYDRLPLM | En_Gen | no signal | 0/6 |
| KLSYVTHSEHRNKNSIA | EMVTREK | QQYDRLPLS | En_HC | 75 nM | 3/6 |
| KITMSQYNWTSRYQAVA | EQNMRAR | QSYYRLPFS | En_Gibbs | 74 nM | 4/6 |
| KLSMLHDYESRNKNSVA | QASTREW | QQYHRLPLS | GP_Gibbs | 3.1 nM | 6/6 |
| KISQLVNFLGKNKNSVA | QMSTREA | QQYDRLPLS | En_HC | 4.7 nM | 6/6 |
| MISMLTMYGSRNKNSVA | DLSTRGS | QQYHRLPLS | En_HC | 17 nM | 6/6 |
| MISQLWNMGTFAINSVA | QASIRNS | QQYDRLPLV | En_Gen | 200 nM | 1/6 |
| QLLMATMQGTYERNSVA | HAETRED | QSYHRLPLS | En_HC | no signal | 0/6 |
| MISQVMNTLTRHGNNVA | DLQEREQ | QQYFRLPLS | En_Gen | 11 nM | 5/6 |
| MISQLYNMGSFAINSVA | QASERNN | QQYDRLPLI | En_Gen | 150 nM | 6/6 |
| KIRVNQYMQSEMESNIA | GTSVRHS | QQYFHLPLT | En_Gibbs | 2.5 nM | 6/6 |
| KLYQNVGTMSHNKQNIA | DMERRED | QQYHRLPLS | En_HC | 3.7 nM | 6/6 |
| GIHSQMVGTSAVFENVA | NANERLE | QQYSRLPLT | En_Gibbs | 1.8 nM | 6/6 |
| KSAYSELGESANKNSVA | SANTRES | QQYHRLPLS | GP_Gibbs | 11 nM | 6/6 |
| TISQMTSLFEQSINNVA | EVTTREN | QQYDRLPLA | En_Gen | no signal | 0/6 |
| KLSSVTGHMSMAKNNVA | EMVTREK | QQYNRLPLA | En_Gen | 1.4 nM | 6/6 |
| MIDWGELPNGQQTSSIA | QGHLRAG | QQYGRLPLC | En_Gibbs | 4.8 nM | 6/6 |
| KYQQSEPTESRNKNSVA | NASTRES | QQYHQLPLS | GP_Gibbs | 1.7 nM | 6/6 |
| RIMYEQFGNTYSVNNVA | QAHVRAY | QMYNRLPLS | En_Gibbs | no signal | 0/6 |
| KIEWSTFYYAQNDRSIA | EESRKER | QQYMMLPLS | En_Gibbs | 28 nM | 1/6 |
| KISQMVTYESTWHNAIA | QTSEREE | QQYHRLPLS | En_HC | 1.8 nM | 6/6 |
| HMMMYTDMQQNIQCGVA | DATTRNT | QQYQRLPLS | En_Gibbs | 12 nM | 6/6 |
| KISMTSDMELKNRNSVA | ELVTRMN | QQYNRLPLS | En_Gen | 2.7 nM | 6/6 |
| MLSSVLHMLGVKQNSIA | DLVLRAN | QQYHRLPLM | En_Gen | no signal | 0/6 |
| HISQMVMYGSCNKNNVA | QVTLREE | QQYHRLPLS | En_HC | 4.9 nM | 6/6 |
| KVSQMQPYEERNKNNVA | NASTRMS | QQYHRLPLS | GP_Gibbs | 980 pM | 6/6 |
| SLDMREPPYTALSGSVA | GSANRAI | QQYFRLPLS | En_Gibbs | 1.1 nM | 6/6 |
| KLSQQAEYESRNKNSVA | QASTREM | QQYHRLPLT | GP_Gibbs | 540 pM | 6/6 |
| KLASVTGTEKVRGNNVA | EMETRER | QQYNRLPLA | En_Gen | 29 nM | 6/6 |
| KVSQSYGYESNNSNSVA | NASQREH | QQYHRLPLS | GP_Gibbs | 3.9 nM | 6/6 |
| KVSQSWEYEDRNKNSVA | QASQRCS | QQYHRLPLS | GP_Gibbs | 950 pM | 6/6 |
| KVSQGELYESRDWNNVA | NASTREN | QQYHRLPLS | GP_Gibbs | 1.5 nM | 6/6 |
| KLSISHQVESINKSNVA | ELVTRES | QQYDRLPLS | En_HC | 70 nM | 2/6 |
| TISQSAQMESHTKNSVA | DLNVRGS | QQYDRLPLS | En_HC | 5.3 nM | 6/6 |
| KLQISRGYEQRNKNSVA | EASTRCD | QQYHRLPLS | GP_Gibbs | 830 pM | 6/6 |
| KFEQGFLYEERNKNSVA | HASQRES | QQYHRLPLS | GP_Gibbs | 320 pM | 6/6 |

Repeated from above, the 8 best binders with a signal in all replicates:

| CDR-L1 | CDR-L2 | CDR-L3 | group | Kd (apparent) | seen in |
|---|---|---|---|---|---|
| KFEQGFLYEERNKNSVA | HASQRES | QQYHRLPLS | GP_Gibbs | 320 pM | 6/6 |
| KLSQQAEYESRNKNSVA | QASTREM | QQYHRLPLT | GP_Gibbs | 540 pM | 6/6 |
| KLQISRGYEQRNKNSVA | EASTRCD | QQYHRLPLS | GP_Gibbs | 830 pM | 6/6 |
| TISNVMNTLTRHGNNVA | DLAERED | QQYFRLPLS | En_Gen | 910 pM | 6/6 |
| KVSQSWEYEDRNKNSVA | QASQRCS | QQYHRLPLS | GP_Gibbs | 950 pM | 6/6 |
| KVSQMQPYEERNKNNVA | NASTRMS | QQYHRLPLS | GP_Gibbs | 980 pM | 6/6 |
| SLDMREPPYTALSGSVA | GSANRAI | QQYFRLPLS | En_Gibbs | 1.1 nM | 6/6 |
| SMSNLGMVPSVWKNSIA | DAEIVEE | QQYSRLPLL | En_Gibbs | 1.2 nM | 6/6 |